{"source": "patent US8753841B2", "about": "“Enzyme that catalyzes a peptide-forming reaction from a carboxy component and an amine component, microbe producing the same, and a method of producing a dipeptide using the enzyme or microbe” (Ajinomoto Co., Inc., priority 2002, dated 2014)"}
{"test_system": "peptide-forming enzyme from Empedobacter brevis strain FERM BP-8113", "assay": "Substrate specificity of enzyme (peptide production from carboxy and amine components)", "assay_type": "biochemical", "set-up": "key to Formed peptide (mM): +: those peptides for which production was confirmed but which were unable to be quantified due to the absence of a standard; a trace amount", "conditions": "100 mM L-alanine methyl ester hydrochloride, L-amino acid 150 mM, pH 9.0, 25° C., 3 hours", "units": {"Formed peptide": "mM"}}
{"substance": "L-Ala-Gly", "Formed peptide": 13.7}
{"substance": "L-Ala-L-Ala", "Formed peptide": 25.4}
{"substance": "L-Ala-L-Arg", "Formed peptide": 88.0}
{"substance": "L-Ala-L-Asn", "Formed peptide": 65.5}
{"substance": "L-Ala-L-Asp", "Formed peptide": 2.1}
{"substance": "L-Ala-L-CySH", "Formed peptide (mM)": "+"}
{"substance": "L-Ala-L-Glu", "Formed peptide": 42.9}
{"substance": "L-Ala-L-His", "Formed peptide": 66.9}
{"substance": "L-Ala-L-Ile", "Formed peptide": 33.9}
{"substance": "L-Ala-L-Leu", "Formed peptide": 45.3}
{"substance": "L-Ala-L-Lys", "Formed peptide": 71.8}
{"substance": "L-Ala-L-Met", "Formed peptide": 83.3}
{"substance": "L-Ala-L-Phe", "Formed peptide": 74.4}
{"substance": "L-Ala-L-Pro", "Formed peptide (mM)": "tr"}
{"substance": "L-Ala-L-Ser", "Formed peptide": 62.5}
{"substance": "L-Ala-L-Thr", "Formed peptide": 53.9}
{"substance": "L-Ala-L-Trp", "Formed peptide": 53.9}
{"substance": "L-Ala-L-Tyr", "Formed peptide": 17.6}
{"substance": "L-Ala-L-Val", "Formed peptide": 20.8}
{"test_system": "not listed separately", "assay": "Comparison of ability to catalyze peptide formation with known enzymes", "assay_type": "biochemical", "conditions": "100 mM L-alanine methyl ester hydrochloride, 200 mM L-glutamine, borate buffer pH 9.0, 25° C.", "excerpt": "The peptide-forming ability of the present enzyme was compared with that of known enzymes. Carboxypeptidase Y described in EP 278787A1 and the thiol endopeptidases (ficin, papain, bromelain, and chymopapain) described in EP 359399B1 were used as the known enzymes, and they were used in the form of purified enzymes (manufactured by Sigma). The enzyme uniformly purified in Example 3 was used as a source of the present enzyme of the present invention. […] As has been described above, the present enzyme was verified to have an extremely high peptide production rate unlike any known enzyme in the prior art. Furthermore, the enzyme of the present invention is a dimer having a molecular weight of about 75,000. In contrast, the molecular weight of the carboxypeptidase Y has been reported to be about 61,000, while the molecular weight of thiol endopeptidase has been reported to be about 23,000 to 36,000. Thus, the L-alanyl-L-glutamine production rate of the enzyme of the present invention as compared to those of the carboxypeptidase Y and the thiol endopeptidase is even greater when the rate is expressed per molecular weight than when it is expressed per unit weight as indicated in the examples.", "units": {"L-Ala-L-Gln production rate": "mM/min"}}
{"substance": "Bromelain", "L-Ala-L-Gln production rate": 0.0062}
{"substance": "Chymopapain: thiol endopeptidase described in EP 359399B1, purified enzyme manufactured by Sigma", "L-Ala-L-Gln production rate": 0.0100}
{"substance": "Ficin", "L-Ala-L-Gln production rate": 0.0096}
{"test_system": "peptide-forming enzyme from Empedobacter brevis strain FERM BP-8113", "assay": "Production of L-alanyl-L-glutamine from L-alanine methyl ester and L-glutamine with the Mono S fraction enzyme", "conditions": "100 mM L-alanine methyl ester hydrochloride, 200 mM L-glutamine, 10 mM EDTA, pH 9.0, 18° C., enzyme-added lot", "units": {"peptide formed": "mM"}}
{"substance": "L-Ala-L-Ala-L-Gln", "peptide formed": 1.3}
